The values that follow come from PubChem BioAssay AID738 (SRMLSC, 2007).

By inhibition is commonly meant the change of the read-out against control, counted positive when it falls.

The structures appear in SMILES notation. Only a part is listed here, and it is no random draw. Calls of active or inactive are those of the source. Rule as the data show it: active = inhibition above about 30%; inactive = the rest.

This assay in a line: growth inhibition of yeast control strain, primary screen, counter-screen for post-Golgi transport modulator project (AID 738). The following applies: efflux-deficient yeast background strain, growth absorbance A615, 16 h; at 10 µM; hits give high values. In general terms: Counterscreens check selectivity or assay interference.
With `CP(=O)(OC12CC3CC(CC(C3)C1)C2)OC12CC3CC(CC(C3)C1)C2`, the inhibition was active: 38.9%.

In the case of `CC(C)(C)c1ccc(OP(C)(=O)O)cc1`, the inhibition is inactive: 8.61%.

As to `CP(=O)(Nc1ccc(Cl)cc1)Oc1ccc(F)cc1` (configuration not stated), the inhibition is inactive: 18.4%.

Turning to `CCN(CC)CC(O)COC(=O)C(O)(c1ccccc1)C1CCCCC1` (configuration not stated), the inhibition is inactive: 4.08%.

Regarding `CP(=O)(Oc1ccccc1)N1CCOC1=O` (configuration not stated), the inhibition is inactive: -0.3%.

Turning to `Cc1c(NP(C)(=O)Oc2ccc(C(C)C)cc2)c(=O)n(-c2ccccc2)n1C` (configuration not stated), the inhibition is inactive: -3.17%.

As for `CP(=O)(Nc1ccccn1)Oc1ccccc1` (configuration not stated), the inhibition was inactive: -0.88%.

As to `COc1ccccc1OP(C)(=O)Nc1ccc(C)cc1C` (configuration not stated), the inhibition is inactive: 1.98%.

Consider `CCc1ccc(OP(C)(=O)O)cc1`, for which the inhibition is inactive: 17.9%.

In the case of `COc1ccc(OP(C)(=O)Nc2ccccn2)cc1` (configuration not stated), the inhibition was inactive: -5.25%.

On to `CN(C)CCOC(=O)C(O)(c1ccccc1)C1CCCC1` (configuration not stated), for which the inhibition is inactive: 22.7%.

As for `Cc1nc2ccc3ccccc3c2o1.O=[N+]([O-])c1cc([N+](=O)[O-])c(O)c([N+](=O)[O-])c1`, the inhibition is inactive: 6.65%.

For the compound `COc1ccccc1OP(C)(=O)Nc1ccc(C)c(C)c1` (configuration not stated), the inhibition is inactive: -11.2%.

For `CP(=O)(Nc1ccccc1)Oc1ccc(F)cc1` (configuration not stated), the inhibition is inactive: 8.72%.

Turning to `CP(=O)(Nc1ccccc1F)Oc1ccccc1` (configuration not stated), the inhibition was inactive: 2.1%.

As for `CP(=O)(Nc1ccc2c(c1)OCCO2)Oc1ccccc1` (configuration not stated), the inhibition is inactive: -5.93%.

With `Cc1ccccc1NP(C)(=O)Nc1ccccc1C`, the inhibition is inactive: -3.57%.

With `CCOP(C)(=S)SCC(=O)NC(C)(CC)C(=O)O` (configuration not stated), the inhibition was inactive: 19.6%.

With `COc1ccc(OP(C)(=O)Nc2cccc(Br)c2)cc1` (configuration not stated), the inhibition was inactive: 19.1%.

For `CN(C)CCOC(=O)C(O)(c1ccccc1)C1CCCCC1` (configuration not stated), the inhibition is inactive: 8.53%.

`COc1ccccc1OP(C)(=O)Nc1c(C)cccc1C` (configuration not stated): the inhibition was inactive: 5.38%.

For `Cc1nc2ccc3ccccc3c2s1.O=[N+]([O-])c1cc([N+](=O)[O-])c(O)c([N+](=O)[O-])c1`, the inhibition was inactive: 8.37%.

In the case of `Cc1ccc(C)c(NP(C)(=O)Oc2ccccc2)c1` (configuration not stated), the inhibition is inactive: 3.02%.

As to `Cc1cc(C)cc(OP(C)(=O)Nc2ccccn2)c1` (configuration not stated), the inhibition is inactive: 15.2%.

Turning to `Cc1cc(C)cc(OP(C)(=O)Nc2ccc(C)cc2C)c1` (configuration not stated), the inhibition is inactive: 24.4%.

As for `COc1ccccc1OP(C)(=O)Nc1ccc(C)cc1` (configuration not stated), the inhibition is inactive: 1.73%.

Turning to `Cc1ccc(NP(C)(=O)Oc2ccccc2)c(C)c1` (configuration not stated), the inhibition is inactive: 11.4%.

In the case of `COc1ccc(OP(C)(=O)Nc2cccc(F)c2)cc1` (configuration not stated), the inhibition is inactive: -8.83%.

`CCOP(C)(=S)SCC(=O)NC(C)C(=O)O` (configuration not stated): the inhibition is inactive: 3.07%.

On to `CP(=O)(Nc1ccccn1)Oc1ccc(Cl)cc1` (configuration not stated), for which the inhibition is inactive: 0.76%.

Consider `CP(=O)(NC(=O)Nc1ccccc1)Oc1ccccc1` (configuration not stated), for which the inhibition is inactive: 0.73%.

`CP(=S)(Nn1cnnc1)Oc1ccccc1` (configuration not stated): the inhibition was inactive: -2.8%.
